Numbering of substitutions follows the chain as printed.

What all share (test): cell-based
Conditions in all cases: SEM

The target of one assay is T1, rKv4.2 (Rattus norvegicus, UniProt Q63881).
T1 construct: expressed in transfected cells; host or cells: HEK293T
T1 sequence (Q63881 1-630): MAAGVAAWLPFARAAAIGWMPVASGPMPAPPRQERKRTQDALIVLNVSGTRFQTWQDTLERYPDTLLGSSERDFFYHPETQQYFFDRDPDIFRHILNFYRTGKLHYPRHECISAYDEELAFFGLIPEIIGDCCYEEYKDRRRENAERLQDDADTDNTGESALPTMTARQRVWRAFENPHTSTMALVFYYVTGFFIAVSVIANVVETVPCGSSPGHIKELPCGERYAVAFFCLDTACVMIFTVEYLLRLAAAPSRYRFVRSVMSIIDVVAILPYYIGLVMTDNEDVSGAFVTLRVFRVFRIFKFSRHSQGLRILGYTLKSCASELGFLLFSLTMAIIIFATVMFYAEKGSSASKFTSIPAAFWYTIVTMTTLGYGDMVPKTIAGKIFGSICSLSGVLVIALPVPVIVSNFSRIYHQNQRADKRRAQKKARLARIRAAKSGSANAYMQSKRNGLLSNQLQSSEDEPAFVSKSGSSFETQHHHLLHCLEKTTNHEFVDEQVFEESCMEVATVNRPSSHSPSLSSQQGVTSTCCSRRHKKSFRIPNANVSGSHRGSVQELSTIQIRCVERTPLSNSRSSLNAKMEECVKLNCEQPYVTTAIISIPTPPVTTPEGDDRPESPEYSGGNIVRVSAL

The target of another assay is T2, rKv4.3 (Rattus norvegicus, UniProt Q62897).
T2 construct: expressed in transfected cells; host or cells: HEK293T
T2 sequence (Q62897 1-655): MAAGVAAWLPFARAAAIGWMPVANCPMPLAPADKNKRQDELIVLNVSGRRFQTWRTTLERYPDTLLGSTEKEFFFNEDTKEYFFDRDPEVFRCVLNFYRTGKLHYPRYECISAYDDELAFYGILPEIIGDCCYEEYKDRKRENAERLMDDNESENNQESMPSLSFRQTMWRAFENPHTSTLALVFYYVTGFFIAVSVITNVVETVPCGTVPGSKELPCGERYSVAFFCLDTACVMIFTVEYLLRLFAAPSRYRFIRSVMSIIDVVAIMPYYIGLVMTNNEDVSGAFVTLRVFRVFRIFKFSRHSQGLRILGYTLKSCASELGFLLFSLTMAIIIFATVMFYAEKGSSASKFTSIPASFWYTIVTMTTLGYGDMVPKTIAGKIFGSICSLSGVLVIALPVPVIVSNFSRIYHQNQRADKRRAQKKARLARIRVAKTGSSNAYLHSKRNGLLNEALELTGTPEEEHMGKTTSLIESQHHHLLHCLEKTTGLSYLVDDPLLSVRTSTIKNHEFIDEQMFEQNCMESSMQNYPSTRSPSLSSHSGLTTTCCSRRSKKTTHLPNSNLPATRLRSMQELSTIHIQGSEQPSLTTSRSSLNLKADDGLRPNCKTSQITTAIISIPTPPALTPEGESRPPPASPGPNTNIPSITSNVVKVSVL

The next assay addresses T3, rKv4.2 T280A (Rattus norvegicus, UniProt Q63881, T280A).
T3 construct: expressed in transfected cells; host or cells: HEK293T
T3 sequence (Q63881 1-630 T280A): T1 sequence (Q63881 1-630) with T280A

Another assay addresses T4, rKv4.2 D281K (Rattus norvegicus, UniProt Q63881, D281K).
T4 construct: expressed in transfected cells; host or cells: HEK293T
T4 sequence (Q63881 1-630 D281K): T1 sequence (Q63881 1-630) with D281K

For the compound `CC[C@H](C)[C@H](NC(=O)[C@H](CCCCN)NC(=O)[C@H](Cc1ccc(O)cc1)NC(=O)[C@H](CCCCN)NC(=O)[C@@H]1CSSC[C@@H]2NC(=O)[C@H](CCC(=O)O)NC(=O)[C@H](CC(=O)O)NC(=O)[C@H](CCCCN)NC(=O)CNC(=O)[C@@H]3CCCN3C(=O)[C@H]([C@@H](C)O)NC(=O)[C@@H]3CSSC[C@H](NC(=O)[C@H](C(C)C)NC(=O)[C@H](Cc4c[nH]cn4)NC(=O)[C@H](CC(N)=O)NC(=O)[C@@H]4CCCN4C(=O)[C@H](CSSC[C@H](NC(=O)[C@H](C)N)C(=O)N[C@@H](CCCCN)C(=O)NCC(=O)N[C@@H]([C@@H](C)CC)C(=O)N[C@@H](Cc4ccccc4)C(=O)N[C@@H](C(C)C)C(=O)N[C@@H]([C@@H](C)O)C(=O)N3)NC2=O)C(=O)N[C@@H](CO)C(=O)N[C@@H](CO)C(=O)N[C@@H](CCCCN)C(=O)N[C@@H](Cc2c[nH]cn2)C(=O)N[C@@H](CCCCN)C(=O)N[C@@H](Cc2c[nH]c3ccccc23)C(=O)N1)C(N)=O` [Cl6b], the IC50 – broadly, the concentration at which inhibition is half-maximal – on rKv4.2 came to 114 ± 32 nM; at rKv4.3, 82.5 ± 11.1 nM; at rKv4.2 T280A, 11 ± 1 nM; against rKv4.2 D281K, 3270 ± 361 nM.
